Inhibition data for 83 compounds are collected here from PubChem BioAssay AID1416 (The Scripps Research Institute Molecular Screening Center, 2008).

By UniProt entry, the sequences of proteins in these tests, tags left out.
UniProt Q9NZJ5, whole entry: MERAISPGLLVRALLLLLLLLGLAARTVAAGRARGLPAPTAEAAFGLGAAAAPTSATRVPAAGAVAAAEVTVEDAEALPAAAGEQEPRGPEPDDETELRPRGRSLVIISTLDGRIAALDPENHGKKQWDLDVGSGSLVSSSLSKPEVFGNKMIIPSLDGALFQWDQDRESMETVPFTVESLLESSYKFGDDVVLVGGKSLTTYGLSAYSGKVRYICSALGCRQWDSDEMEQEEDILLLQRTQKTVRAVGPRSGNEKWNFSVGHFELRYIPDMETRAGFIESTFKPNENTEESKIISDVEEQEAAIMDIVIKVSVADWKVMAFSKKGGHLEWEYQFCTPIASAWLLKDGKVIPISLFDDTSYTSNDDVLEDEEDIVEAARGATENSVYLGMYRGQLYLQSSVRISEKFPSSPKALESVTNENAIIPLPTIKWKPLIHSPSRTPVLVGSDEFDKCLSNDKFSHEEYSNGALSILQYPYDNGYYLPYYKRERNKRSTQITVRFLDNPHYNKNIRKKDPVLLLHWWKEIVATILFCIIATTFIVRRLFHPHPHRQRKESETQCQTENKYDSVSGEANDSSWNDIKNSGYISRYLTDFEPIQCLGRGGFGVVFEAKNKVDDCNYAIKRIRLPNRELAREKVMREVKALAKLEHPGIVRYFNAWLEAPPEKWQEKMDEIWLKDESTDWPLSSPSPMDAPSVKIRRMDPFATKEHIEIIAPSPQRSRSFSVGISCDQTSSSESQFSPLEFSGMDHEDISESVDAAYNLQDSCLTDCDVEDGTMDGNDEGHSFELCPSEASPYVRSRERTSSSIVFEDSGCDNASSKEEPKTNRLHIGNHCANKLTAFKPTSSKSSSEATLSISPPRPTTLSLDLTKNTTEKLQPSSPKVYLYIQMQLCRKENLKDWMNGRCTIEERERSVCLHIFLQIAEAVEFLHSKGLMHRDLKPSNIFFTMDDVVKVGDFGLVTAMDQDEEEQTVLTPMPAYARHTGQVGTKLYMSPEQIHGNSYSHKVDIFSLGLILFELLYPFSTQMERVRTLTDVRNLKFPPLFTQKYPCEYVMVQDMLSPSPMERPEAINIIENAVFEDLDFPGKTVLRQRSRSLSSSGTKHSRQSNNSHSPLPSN

This is a selection; strong and weak results do not stand in their true shares. Calls of active or inactive are those of the source.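 How the source made its calls: active means inhibition above the mean inhibition of all tested compounds plus 3 SD, set separately per screening campaign (cut at about 2.9% in these data); inactive means the rest.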

The target of the experiment is Eukaryotic translation initiation factor 2-alpha kinase 3 (Homo sapiens) (UniProt Q9NZJ5). The experiment can be described thus: block of dimerizer-induced PERK translation repression, primary screen, PERK inhibitor project, CHO PERK-DD cells, SEAP luminescence, HTS (AID 1416).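 Further: PERK kinase domain activated by AP20187 dimerizer at 100 nM; 0% = DMSO with dimerizer and 100% = rapamycin at 8.4 µM.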 The following applies: CHO PERK-DD fusion, SEAP luminescence translation reporter; at 5.6 µM; hits give high values.
Usually inhibition stands for the relative decrease from the control value, in per cent. For the compound `CCOC(=O)C(CC)C1=NC(C)(C)Cc2ccccc21.O=[N+]([O-])c1cc([N+](=O)[O-])c(O)c([N+](=O)[O-])c1` (stereo not drawn), the inhibition was inactive: 0.75%. In the case of `O=[N+]([O-])c1cc([N+](=O)[O-])c(Nc2nnnn2CCO)c([N+](=O)[O-])c1` it was inactive: 0.39%; in that of `CN1CCCCC1COC(=O)C1(O)c2ccccc2CCc2ccccc21` (stereo not drawn), inactive: -0.08%; in that of `COc1ccccc1OP(C)(=O)Nc1c(C)cccc1C` (stereo not drawn), inactive: 0.24%.

With `CCCOc1ccc(NP(C)(=O)Oc2ccc(Cl)cc2)cc1` (stereo not drawn), the inhibition is inactive: -0.1%. In the case of `CP(=O)(Nc1ccc(SC(F)(F)F)cc1)Oc1ccccc1` (stereo not drawn) it was inactive: 0.88%; in that of `O=[N+]([O-])c1cc([N+](=O)[O-])c(-n2nnc3ccccc32)c([N+](=O)[O-])c1`, inactive: 0.92%; in that of `Cc1nc2ccc3ccccc3c2s1.O=[N+]([O-])c1cc([N+](=O)[O-])c(O)c([N+](=O)[O-])c1`, inactive: 1.79%. On to `COc1ccccc1OP(C)(=O)Nc1cccc(Br)c1` (stereo not drawn), for which the inhibition is inactive: 0.09%. In the case of `Cc1cc(C)cc(OP(C)(=O)Nc2ccc(C)cc2C)c1` (stereo not drawn) it was inactive: -1.14%.

In the case of `CCOC(=O)c1ccc(NP(C)(=O)Oc2cc(C)cc(C)c2)cc1` (stereo not drawn), the inhibition is inactive: -0.49%. Turning to `Cc1cc(C)cc(OP(C)(=O)Nc2ccccn2)c1` (stereo not drawn), the inhibition is inactive: 1.01%. Turning to `CP(=O)(Nc1cccc(Br)c1)Oc1ccccc1` (stereo not drawn), the inhibition is inactive: 0.51%. In the case of `Cc1ccc(C)c(NP(C)(=O)Oc2ccccc2)c1` (stereo not drawn) it was inactive: 0.19%. Regarding `O=C(O)c1cccc(Nc2c([N+](=O)[O-])cc([N+](=O)[O-])cc2[N+](=O)[O-])c1`, the inhibition is inactive: -0.57%. In the case of `CC1=NCCc2c1[nH]c1ccccc21.O=[N+]([O-])c1cc([N+](=O)[O-])c(O)c([N+](=O)[O-])c1` it was inactive: -0.65%; in that of `Cc1cccc(C)c1OP(C)(N)=O` (stereo not drawn), inactive: -0.17%; in that of `CC(C)(C)c1ccc(OP(C)(=O)Nc2ccc(SC(F)(F)F)cc2)cc1` (stereo not drawn), inactive: 1.56%.

On to `O=[N+]([O-])c1ccc2c(c1)C=Nc1ccccc1O2`, for which the inhibition was inactive: 1.17%. In the case of `CCOC(=O)c1ccc(NP(C)(=O)Oc2ccccc2)cc1` (stereo not drawn) it was inactive: 0.2%; in that of `Cc1ccc(NP(C)(=O)Oc2ccccc2)c(C)c1` (stereo not drawn), inactive: 0.24%; in that of `COc1ccccc1OP(C)(=O)Nc1ccc(C)cc1` (stereo not drawn), inactive: -0.17%. For the compound `COc1ccc(OP(C)(=O)Nc2cccc(F)c2)cc1` (stereo not drawn), the inhibition was inactive: 0.8%.

On to `COc1ccccc1OP(C)(=O)Nc1cc(Cl)ccc1C` (stereo not drawn), for which the inhibition is inactive: -0.54%. Turning to `Cc1cc(C)cc(OP(C)(N)=O)c1` (stereo not drawn), the inhibition is inactive: 0.44%. Consider `CCN(CC)CCCOC(=O)C(O)(c1ccccc1)c1ccccc1`, for which the inhibition is inactive: 0.84%. On to `CP(=O)(Oc1ccccc1)OC(c1ccccc1)C(F)(F)F` (stereo not drawn), for which the inhibition is inactive: 0.01%.

For the compound `CP(=O)(Nc1ccc(SC(F)(F)F)cc1)Oc1ccc(Cl)cc1` (stereo not drawn), the inhibition was inactive: -0.25%. Regarding `Cc1cccc(C)c1OP(C)(=O)Nc1ccc(SC(F)(F)F)cc1` (stereo not drawn), the inhibition was inactive: 0.72%. As to `Cc1cc(C)cc(OP(C)(=O)Nc2ccc(SC(F)(F)F)cc2)c1` (stereo not drawn), the inhibition was inactive: -0.16%. In the case of `CP(=O)(NC(=O)Nc1ccccc1)Oc1ccccc1` (stereo not drawn) it was inactive: 1.65%; in that of `CCc1ccc(OP(C)(=O)N2CCN(c3ccc([N+](=O)[O-])cc3)CC2)cc1` (stereo not drawn), inactive: -0.89%; in that of `CCOP(C)(=S)SCC(=O)NC(C)C(=O)O` (stereo not drawn), inactive: -0.54%. For the compound `CCOC(=O)c1ccc(NP(C)(=O)Oc2ccc(OC)cc2)cc1` (stereo not drawn), the inhibition was inactive: 0.99%. The value for `CP(=O)(Nc1ccccn1)Oc1ccc(Cl)cc1` (stereo not drawn) was inactive: 0.51%; that for `CP(=S)(Nn1cnnc1)Oc1ccccc1` (stereo not drawn) was inactive: 0.35%; that for `COc1ccccc1OP(C)(=O)Nc1ccccc1` (stereo not drawn) was inactive: 1.87%. With `CP(=O)(Nc1ccccc1Br)Oc1ccccc1` (stereo not drawn), the inhibition is inactive: 1.56%. For the compound `CP(=O)(OC12CC3CC(CC(C3)C1)C2)OC12CC3CC(CC(C3)C1)C2`, the inhibition is inactive: -0.67%.

Take `CCOC(=O)c1ccc(NP(C)(=O)Oc2ccc(Cl)cc2)cc1` (stereo not drawn): the inhibition is inactive: 0.71%. The value for `COc1ccc(OP(C)(=O)Nc2ccc(Br)cc2)cc1` (stereo not drawn) was inactive: 0.44%; that for `CCN(CC)CC(O)COC(=O)C(O)(c1ccccc1)C1CCCCC1` (stereo not drawn) was inactive: -0.28%. In the case of `CCc1ccc(OP(C)(=O)Nc2cccnc2)cc1` (stereo not drawn), the inhibition is inactive: 0.6%. Consider `CP(=O)(Oc1ccccc1)N1CCOC1=O` (stereo not drawn), for which the inhibition is inactive: 0.57%. On to `O=C(OCCCN1CCCC1)C(O)(c1ccccc1)C1CCCCC1` (stereo not drawn), for which the inhibition is inactive: -0.88%. In the case of `COc1ccccc1OP(C)(=O)Nc1c(C)n(C)n(-c2ccccc2)c1=O` (stereo not drawn) it was inactive: 0.67%; in that of `CP(=O)(Nc1ccc(Cl)cc1)Oc1ccc(F)cc1` (stereo not drawn), inactive: -0.01%; in that of `COc1ccccc1OP(C)(=O)Nc1ccccc1Br` (stereo not drawn), inactive: 0.85%.

On to `CC(C)(C)c1ccc(OP(C)(=O)O)cc1`, for which the inhibition is inactive: 1.38%. For the compound `CN(C)C(=O)c1c([N+](=O)[O-])cc([N+](=O)[O-])cc1[N+](=O)[O-]`, the inhibition was inactive: 1.11%. The value for `COc1ccccc1OP(C)(=O)Nc1ccc(Br)cc1` (stereo not drawn) was inactive: 0.02%; that for `CN(C)CCOC(=O)C(O)(c1ccccc1)C1CCCC1` (stereo not drawn) was inactive: 0.25%; that for `COc1ccc(OP(C)(=O)Nc2ccccn2)cc1` (stereo not drawn) was inactive: 0.18%.

Consider `Cc1c(NP(C)(=O)Oc2ccc(C(C)C)cc2)c(=O)n(-c2ccccc2)n1C` (stereo not drawn), for which the inhibition is inactive: 0.55%. The value for `O=[N+]([O-])c1cc([N+](=O)[O-])c(Nc2ccccn2)c([N+](=O)[O-])c1` was inactive: 0.28%; that for `CCc1ccc(OP(C)(=O)O)cc1` was inactive: 1.08%.

Consider `COc1ccccc1OP(C)(=O)Nc1ccc(C)cc1C` (stereo not drawn), for which the inhibition is inactive: 0.26%. `CP(=O)(Nc1ccccn1)Oc1ccccc1` (stereo not drawn): the inhibition is inactive: 0.11%. The value for `Cc1cc(C)cc(OP(C)(=O)Nc2cccc(C(F)(F)F)c2)c1` (stereo not drawn) was inactive: -0.23%. In the case of `COc1ccc(OP(C)(=O)Nc2ccccc2Br)cc1` (stereo not drawn) it was inactive: 0.69%; in that of `COc1ccccc1OP(C)(=O)Nc1ccc(C)c(C)c1` (stereo not drawn), inactive: -0.22%; in that of `Cc1nc2ccc3ccccc3c2o1.O=[N+]([O-])c1cc([N+](=O)[O-])c(O)c([N+](=O)[O-])c1`, inactive: 1.47%. In the case of `CP(=O)(Nc1ccc(Cl)cc1Cl)Oc1ccccc1` (stereo not drawn), the inhibition was inactive: 0.78%. Turning to `CP(=O)(OCCOc1ccccc1)OCCOc1ccccc1`, the inhibition is inactive: 1.41%. On to `COc1ccc(OP(C)(=O)Nc2ccc(SC(F)(F)F)cc2)cc1` (stereo not drawn), for which the inhibition was inactive: 0.07%. The value for `CCOC(=O)c1ccc(NP(C)(=O)Oc2ccc(F)cc2)cc1` (stereo not drawn) was inactive: -0.75%; that for `CCN(CC)CCCOC(=O)C(O)(c1ccccc1)C1CCCCC1` (stereo not drawn) was inactive: -0.67%.

Take `CCCCCOc1ccc(NP(C)(=O)Oc2ccc(Cl)cc2Cl)cc1` (stereo not drawn): the inhibition is inactive: 1.15%. The value for `CP(=O)(Nc1ccccc1)Oc1ccc(F)cc1` (stereo not drawn) was inactive: 1.07%. Take `CC(C)c1ccc(OP(C)(=O)Nc2ccc(SC(F)(F)F)cc2)cc1` (stereo not drawn): the inhibition was inactive: 1.03%. With `CP(=O)(Nc1ccccc1F)Oc1ccccc1` (stereo not drawn), the inhibition was inactive: 0.98%. The value for `O=C(OCCN1CCN(CCOCc2ccccc2)CC1)C(O)(c1ccccc1)c1ccccc1` was inactive: -0.36%; that for `O=C(OC1CN2CCC1CC2)c1ccc([N+](=O)[O-])cc1` (stereo not drawn) was inactive: 1.04%; that for `CP(=O)(Nc1ccc(SC(F)(F)F)cc1)Oc1ccc(F)cc1` (stereo not drawn) was inactive: 1.18%. The value for `CCOP(C)(=S)SCC(=O)NC(C)(CC)C(=O)O` (stereo not drawn) was inactive: 0.79%. The value for `CP(=O)(Nc1ccc2c(c1)OCCO2)Oc1ccccc1` (stereo not drawn) was inactive: 0.3%. On to `Cc1ccccc1NP(C)(=O)Nc1ccccc1C`, for which the inhibition was inactive: 0.47%. Regarding `COc1ccc(OP(C)(=O)Nc2cccc(Br)c2)cc1` (stereo not drawn), the inhibition was inactive: 1.22%. In the case of `COc1ccc(NP(C)(=O)Oc2ccccc2OC)cc1` (stereo not drawn) it was inactive: -0.17%; in that of `CN(C)CCOC(=O)C(O)(c1ccccc1)C1CCCCC1` (stereo not drawn), inactive: 0.25%. In the case of `O=[N+]([O-])c1cc([N+](=O)[O-])c(NCC2CCS(=O)(=O)C2)c([N+](=O)[O-])c1` (stereo not drawn) it was inactive: 0.84%; in that of `Cc1cc(-c2cccc3ccccc23)c(C)cn1.O=[N+]([O-])c1cc([N+](=O)[O-])c(O)c([N+](=O)[O-])c1`, inactive: 2.09%; in that of `O=[N+]([O-])c1ccc(OP2(=O)COCCO2)cc1` (stereo not drawn), inactive: 0.5%.
